# Membrane permeability of cyclic peptides

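Conditions beyond the assay type are not listed; see the original paper. Other peptides of the study may be missing here. Peptides that the database sets to -10, its floor, are left out.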

PAMPA is the parallel artificial membrane permeability assay, which has no cells and reads passive diffusion.
P is given in units of 10^-6 cm/s (from log10 values with two decimals); larger means faster passage.

compound	PAMPA (10^-6 cm/s)
CC(C)C[C@@H]1NC(=O)C[C@H](Cc2ccccc2)NC(=O)[C@H](Cc2ccccc2)NC(=O)[C@@H](CC(C)C)N(C)C(=O)[C@@H]2CCCN2C(=O)[C@@H](CC(C)C)N(C)C1=O	6.5
CCCN1CC(=O)N[C@@H](CC(C)C)C(=O)N[C@H](CC(C)C)C(=O)N2CCC[C@@H]2C(=O)N(C)[C@H](CC(C)C)C(=O)N[C@@H](Cc2ccccc2)C(=O)N2CCC[C@H]2C1=O	4.3
CC(C)C[C@@H]1NC(=O)[C@@H]2CCCN2C(=O)[C@@H](CC(C)C)NC(=O)[C@@H](CC(C)C)N(C)C(=O)[C@H](C)NC(=O)[C@H](Cc2ccccc2)NC1=O	2.4
CC(C)C[C@@H]1NC(=O)[C@H](CC(C)C)N(C)C(=O)[C@@H](C)N(C)C(=O)[C@@H]2CCCN2C(=O)[C@H](Cc2ccccc2)NC(=O)[C@H](CC(C)C)N(C)C(=O)[C@H]2CCCN2C1=O	9.1
CC(C)C[C@@H]1NC(=O)[C@@H]2CCCN2C(=O)CN(Cc2ccccc2)C(=O)[C@@H](CC(C)C)N(C)C(=O)[C@H](C)N(C)C(=O)[C@H]2CCCN2C(=O)[C@H](Cc2ccccc2)NC1=O	2.4
CC(C)C[C@@H]1C(=O)N[C@@H](Cc2ccccc2)C(=O)N2CCC[C@H]2C(=O)N(C)[C@H](C)C(=O)N[C@H](CC(C)C)C(=O)N[C@H](CC(C)C)C(=O)N2CCC[C@H]2C(=O)N1C	2.1
CC(C)C[C@@H]1NC(=O)[C@H](C)N(C)C(=O)[C@H]2CCCN2C(=O)[C@H](Cc2ccccc2)NC(=O)[C@@H](CC(C)C)N(C)C(=O)[C@H]2CCCN2C(=O)[C@H](CC(C)C)N(C)C1=O	5.4
CCCN1CC(=O)N[C@@H](CC(C)C)C(=O)N(C)[C@@H](CC(C)C)C(=O)N2CCC[C@@H]2C(=O)N(Cc2ccccc2)CC(=O)N[C@@H](Cc2ccccc2)C(=O)N2CCC[C@@H]2C1=O	7.2
CC(C)C[C@@H]1C(=O)N[C@H](CC(C)C)C(=O)N2CCC[C@H]2C(=O)N(Cc2ccccc2)CC(=O)N[C@@H](Cc2ccccc2)C(=O)N(C)[C@@H](C)C(=O)N1C	6.9
CCCN1CC(=O)N(C)[C@@H](CC(C)C)C(=O)N[C@H](CC(C)C)C(=O)N2CCC[C@@H]2C(=O)N(C)[C@H](CC(C)C)C(=O)N[C@@H](Cc2ccccc2)C(=O)N2CCC[C@@H]2C1=O	4.8
CC(C)C[C@@H]1C(=O)N[C@H](CC(C)C)C(=O)N2CCC[C@H]2C(=O)N[C@H](CC(C)C)C(=O)N[C@@H](Cc2ccccc2)C(=O)N2CCC[C@@H]2C(=O)N[C@@H](Cc2ccccc2)CC(=O)N1C	3.2
CC(C)C[C@@H]1NC(=O)[C@@H]2CCCN2C(=O)C[C@H](Cc2ccccc2)NC(=O)[C@H](CC(C)C)N(C)C(=O)C[C@H](Cc2ccccc2)NC(=O)[C@@H]2CCCN2C(=O)[C@H](Cc2ccccc2)NC1=O	2
CC(C)C[C@H]1NC(=O)[C@@H]2CCCN2C(=O)C[C@H](Cc2ccccc2)NC(=O)[C@H](CC(C)C)N(C)C(=O)[C@H](C)N(C)C(=O)[C@H]2CCCN2C(=O)[C@H](Cc2ccccc2)NC1=O	0.35
CC(C)C[C@@H]1NC(=O)[C@@H](C)NC(=O)[C@H]2CCCN2C(=O)[C@H](Cc2ccccc2)NC(=O)[C@H](CC(C)C)NC(=O)[C@@H]2CCCN2C(=O)[C@@H](CC(C)C)NC1=O	1.3
CCCN1CC(=O)N(C)[C@@H](CC(C)C)C(=O)N(C)[C@@H](CC(C)C)C(=O)N2CCC[C@H]2C(=O)N(Cc2ccccc2)CC(=O)N[C@@H](Cc2ccccc2)C1=O	13

Excerpt, the final 2 entries:

compound	PAMPA (10^-6 cm/s)
CC(C)C[C@@H]1NC(=O)[C@@H](C)NC(=O)[C@H]2CCCN2C(=O)[C@H](Cc2ccccc2)NC(=O)[C@H](CC(C)C)NC(=O)[C@@H]2CCCN2C(=O)[C@@H](CC(C)C)NC1=O	1.3
CCCN1CC(=O)N(C)[C@@H](CC(C)C)C(=O)N(C)[C@@H](CC(C)C)C(=O)N2CCC[C@H]2C(=O)N(Cc2ccccc2)CC(=O)N[C@@H](Cc2ccccc2)C1=O	13

Data: CycPeptMPDB; original report Townsend et al. 2020, doi:10.26434/chemrxiv.13335941.v1.